The chains behind the UniProt entries cited, without tags or fusion partners. Where a name states a change or a piece, a line headed by the entry shows the natural chain unless it says otherwise.
UniProt P28843: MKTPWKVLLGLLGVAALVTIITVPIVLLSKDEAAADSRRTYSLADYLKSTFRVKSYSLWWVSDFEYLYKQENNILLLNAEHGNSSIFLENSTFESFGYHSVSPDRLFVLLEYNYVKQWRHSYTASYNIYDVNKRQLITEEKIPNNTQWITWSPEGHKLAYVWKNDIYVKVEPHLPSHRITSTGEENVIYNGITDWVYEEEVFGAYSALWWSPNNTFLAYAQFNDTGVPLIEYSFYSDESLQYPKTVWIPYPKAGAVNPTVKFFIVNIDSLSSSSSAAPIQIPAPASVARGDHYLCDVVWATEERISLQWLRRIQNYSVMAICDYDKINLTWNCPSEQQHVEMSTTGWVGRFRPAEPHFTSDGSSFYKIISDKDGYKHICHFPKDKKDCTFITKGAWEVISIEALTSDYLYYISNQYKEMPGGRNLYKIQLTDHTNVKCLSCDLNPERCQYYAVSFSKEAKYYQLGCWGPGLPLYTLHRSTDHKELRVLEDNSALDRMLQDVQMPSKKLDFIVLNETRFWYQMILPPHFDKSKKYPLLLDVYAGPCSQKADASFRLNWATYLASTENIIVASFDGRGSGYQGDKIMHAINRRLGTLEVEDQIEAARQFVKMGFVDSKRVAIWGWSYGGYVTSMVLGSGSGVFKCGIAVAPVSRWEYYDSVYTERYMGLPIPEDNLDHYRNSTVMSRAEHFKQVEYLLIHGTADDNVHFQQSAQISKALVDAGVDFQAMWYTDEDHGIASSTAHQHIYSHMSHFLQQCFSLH

According to patent US12636284B2, “Compositions for use in the prevention and/or treatment of intellectual disability and neurodegenerative diseases in a subject with down syndrome” (UNIVERSITA' DEGLI STUDI DI ROMA “LA SAPIENZA”, priority 2021, dated 2026):

Legend:
[1] = target: DPP4 enzyme (Mus musculus, UniProt P28843); assay: DPP4 enzyme activity in primary hippocampal neurons isolated from Ts2Cje mice
[2] = test system: DPP4 enzyme; settings: end of 21 days intranasal treatment

In the case of Cn1c(=O)cc(N2CCC[C@@H](N)C2)n(Cc2ccccc2C#N)c1=O [alogliptin], the “activity of the DPP4 enzyme in Ts2Cje neurons” value [1] is reported as “significant inhibition”.

N[C@@H](CC(=O)N1CCn2c(nnc2C(F)(F)F)C1)Cc1cc(F)c(F)cc1F [sitagliptin, (R)-4-oxo-4-[3-(trifluoromethyl)-5,6-dihydro[1,2,4]triazole[4,3-a]pyrazin-7(8H)-yl]-1-(2,4,5-trifluorophenyl)butan-2-amine] was tested, and the “activity of the DPP4 enzyme in Ts2Cje neurons” value [1] was “significant inhibition”, the “DPP4 enzyme activity at the hippocampal level” value ([2]; hippocampus) was “reduce activation of the DPP4 enzyme at the hippocampal level” and the “DPP4 enzyme activity at the peripheral level” value ([2]; liver and plasma) was “without promoting significant effects at the peripheral level”.
